How the values were obtained:
[1] = target: T-cell protein tyrosine phosphatase (TCPTP) (Homo sapiens, UniProt P17706); assay: TCPTP inhibition assay (selectivity); type: biochemical; details: 20 μM compound, 2% DMSO
PTP1B = PTP1B (Homo sapiens, UniProt P18031); assay: PTP1B inhibition assay with p-nitrophenyl phosphate (pNPP) as substrate; details: read-out: IC50 on PTP1B, dose-response run when inhibition >50% at 20 μM

Protein sequences, listed by entry. Tags and fused reporters are not part of them.
UniProt P17706, whole entry: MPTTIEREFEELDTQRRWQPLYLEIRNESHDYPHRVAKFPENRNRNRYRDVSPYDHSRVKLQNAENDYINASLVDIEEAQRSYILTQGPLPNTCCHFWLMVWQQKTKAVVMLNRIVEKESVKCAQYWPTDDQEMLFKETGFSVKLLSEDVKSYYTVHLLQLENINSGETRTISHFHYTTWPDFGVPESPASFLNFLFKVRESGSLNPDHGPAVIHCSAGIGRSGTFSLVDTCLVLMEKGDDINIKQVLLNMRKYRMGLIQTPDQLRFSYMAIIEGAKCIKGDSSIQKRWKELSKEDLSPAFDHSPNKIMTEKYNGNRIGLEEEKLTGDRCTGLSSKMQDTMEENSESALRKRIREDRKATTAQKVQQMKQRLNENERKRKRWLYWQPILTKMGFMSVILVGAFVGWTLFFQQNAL
UniProt P18031, whole entry: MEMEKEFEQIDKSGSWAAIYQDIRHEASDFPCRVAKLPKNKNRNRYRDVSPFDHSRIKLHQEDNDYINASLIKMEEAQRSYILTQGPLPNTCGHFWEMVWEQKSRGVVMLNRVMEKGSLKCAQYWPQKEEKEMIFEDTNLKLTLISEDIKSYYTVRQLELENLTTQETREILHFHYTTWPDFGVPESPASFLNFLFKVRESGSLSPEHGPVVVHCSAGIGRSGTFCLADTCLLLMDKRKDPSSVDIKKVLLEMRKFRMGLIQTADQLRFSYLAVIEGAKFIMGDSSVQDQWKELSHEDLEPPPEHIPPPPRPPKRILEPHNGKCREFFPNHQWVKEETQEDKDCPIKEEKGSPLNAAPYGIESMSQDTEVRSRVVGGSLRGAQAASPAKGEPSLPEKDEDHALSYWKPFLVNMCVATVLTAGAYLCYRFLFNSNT

SMILES	% Inhibition (20 μM) on TCPTP [1] [%]	IC50 (PTP1B) [µM]
c1ccc2c(Cc3noc(Cc4c[nH]c5ccccc45)n3)c[nH]c2c1	55.17	5.8
Clc1ccc2c(Cc3nc(Cc4c[nH]c5ccccc45)no3)c[nH]c2c1	54.35	8.7
CCCCc1ccc(C(=O)ON=C(N)Cc2c[nH]c3ccccc23)cc1	–	> 20
Clc1ccc2[nH]cc(Cc3nc(Cc4c[nH]c5ccccc45)no3)c2c1	38.29	7.9

Reference: paper PMC5867641, “Function-Oriented Synthesis of Marine Phidianidine Derivatives as Potential PTP1B Inhibitors with Specific Selectivity” (Marine Drugs, 2018)
